# Measurements as given in PubChem BioAssay AID463187 (University of Pittsburgh Molecular Library Screening Center, 2010).
# Chains of the proteins cited; added tags and fusions are not shown.
# UniProt P08631, whole entry, looked up: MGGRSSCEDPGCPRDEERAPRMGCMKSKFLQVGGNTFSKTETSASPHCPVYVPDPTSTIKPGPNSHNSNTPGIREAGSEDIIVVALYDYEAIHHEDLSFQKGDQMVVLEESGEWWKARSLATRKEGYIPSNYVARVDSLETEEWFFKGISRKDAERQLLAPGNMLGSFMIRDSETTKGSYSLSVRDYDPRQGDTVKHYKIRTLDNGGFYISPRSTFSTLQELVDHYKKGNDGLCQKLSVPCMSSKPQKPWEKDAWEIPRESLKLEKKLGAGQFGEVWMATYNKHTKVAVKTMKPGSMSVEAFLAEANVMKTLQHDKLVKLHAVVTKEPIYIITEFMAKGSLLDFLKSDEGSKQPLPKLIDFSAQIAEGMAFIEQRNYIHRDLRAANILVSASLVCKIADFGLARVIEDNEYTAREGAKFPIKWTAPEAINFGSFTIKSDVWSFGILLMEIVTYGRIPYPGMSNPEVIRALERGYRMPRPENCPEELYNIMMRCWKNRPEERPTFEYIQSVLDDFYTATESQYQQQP
# The list shows a part of the results, in another mix than the full data. Activity calls are given as the source filed them.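 How the source made its calls: active means Hck-Nef kinase inhibition above about 50% (limit read from the data); inactive means inhibition below that limit.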
# Biological target: Tyrosine-protein kinase HCK (Homo sapiens) (UniProt P08631)
# Assay: Hck:Nef complex kinase activity blockers – biochemical, Z-Lyte FRET, 384-well, Hck-YEEI, primary screen (AID 463187);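 further: 0% = DMSO with Hck plus Nef and 100% = Hck alone without Nef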
# Settings: Recombinant Hck-YEEI plus Nef, Z-Lyte FRET kinase assay; at 20 µM; active compounds read high
row,SMILES,inhibition
1,O=C(O)c1cccc(Nc2c([N+](=O)[O-])cc([N+](=O)[O-])cc2[N+](=O)[O-])c1,inactive: 10%
2,CC1=NCCc2c1[nH]c1ccccc21.O=[N+]([O-])c1cc([N+](=O)[O-])c(O)c([N+](=O)[O-])c1,inactive: -1.5%
3,Cc1cc(C)cc(OP(C)(=O)Nc2ccc(C)cc2C)c1 (stereo not given),inactive: 0.969%
4,CCOC(=O)c1ccc(NP(C)(=O)Oc2cc(C)cc(C)c2)cc1 (stereo not given),inactive: 0.221%
5,COc1ccccc1OP(C)(=O)Nc1cccc(Br)c1 (stereo not given),inactive: 13.3%
6,Cc1cc(C)cc(OP(C)(=O)Nc2ccccn2)c1 (stereo not given),inactive: -8.8%
7,CP(=O)(Nc1cccc(Br)c1)Oc1ccccc1 (stereo not given),inactive: -3.06%
8,Cc1ccc(C)c(NP(C)(=O)Oc2ccccc2)c1 (stereo not given),inactive: 1.74%
9,O=[N+]([O-])c1cc([N+](=O)[O-])c(-n2nnc3ccccc32)c([N+](=O)[O-])c1,inactive: 36.4%
10,Cc1nc2ccc3ccccc3c2s1.O=[N+]([O-])c1cc([N+](=O)[O-])c(O)c([N+](=O)[O-])c1,inactive: 1.41%
11,O=[N+]([O-])c1cc([N+](=O)[O-])c(Nc2nnnn2CCO)c([N+](=O)[O-])c1,inactive: 24.7%
12,CCOC(=O)C(CC)C1=NC(C)(C)Cc2ccccc21.O=[N+]([O-])c1cc([N+](=O)[O-])c(O)c([N+](=O)[O-])c1 (stereo not given),inactive: 9.59%
13,CCCOc1ccc(NP(C)(=O)Oc2ccc(Cl)cc2)cc1 (stereo not given),inactive: 17.2%
14,CP(=O)(Nc1ccc(SC(F)(F)F)cc1)Oc1ccccc1 (stereo not given),inactive: 2.99%
15,CN1CCCCC1COC(=O)C1(O)c2ccccc2CCc2ccccc21 (stereo not given),inactive: 5.85%
16,COc1ccccc1OP(C)(=O)Nc1c(C)cccc1C (stereo not given),inactive: 0.941%
17,COc1ccccc1OP(C)(=O)Nc1ccccc1 (stereo not given),inactive: 8.44%
18,CP(=O)(Nc1ccccc1Br)Oc1ccccc1 (stereo not given),inactive: -1.89%
19,CP(=S)(Nn1cnnc1)Oc1ccccc1 (stereo not given),inactive: 2.07%
20,CP(=O)(NC(=O)Nc1ccccc1)Oc1ccccc1 (stereo not given),inactive: -0.112%
21,CCc1ccc(OP(C)(=O)N2CCN(c3ccc([N+](=O)[O-])cc3)CC2)cc1 (stereo not given),inactive: 6.13%
22,Cc1cc(C)cc(OP(C)(=O)Nc2ccc(SC(F)(F)F)cc2)c1 (stereo not given),inactive: -0.436%
23,CP(=O)(Nc1ccc(SC(F)(F)F)cc1)Oc1ccc(Cl)cc1 (stereo not given),inactive: 21.4%
24,Cc1cccc(C)c1OP(C)(=O)Nc1ccc(SC(F)(F)F)cc1 (stereo not given),inactive: 1.18%
25,CP(=O)(Oc1ccccc1)OC(c1ccccc1)C(F)(F)F (stereo not given),inactive: 18.9%
